Earlier results, collected in US9828333B2, “Compounds for the treatment of influenza” (CHRISTIAN-ALBRECHTS-UNIVERSITAT ZU KIEL, priority 2011, dated 2017).

Conditions: in vivo; cited from earlier work

CC(=O)N[C@H]1[C@H]([C@H](O)[C@H](O)CO)OC(C(=O)O)=C[C@@H]1N=C(N)N [Zanamivir]
bioavailability after oral administration: 2%
